Measurements taken from US20030235860A1, “Interactions between AR, ER, TR2, and TR4” (priority 1999, published 2003).

Chains of the proteins cited; added tags and fusions are not shown. A line that says so, or that is headed by a name, gives the form on record, which may keep a tag or linker.
UniProt P10275, with tags, fused parts or gaps DEL79-80/DUP473-473: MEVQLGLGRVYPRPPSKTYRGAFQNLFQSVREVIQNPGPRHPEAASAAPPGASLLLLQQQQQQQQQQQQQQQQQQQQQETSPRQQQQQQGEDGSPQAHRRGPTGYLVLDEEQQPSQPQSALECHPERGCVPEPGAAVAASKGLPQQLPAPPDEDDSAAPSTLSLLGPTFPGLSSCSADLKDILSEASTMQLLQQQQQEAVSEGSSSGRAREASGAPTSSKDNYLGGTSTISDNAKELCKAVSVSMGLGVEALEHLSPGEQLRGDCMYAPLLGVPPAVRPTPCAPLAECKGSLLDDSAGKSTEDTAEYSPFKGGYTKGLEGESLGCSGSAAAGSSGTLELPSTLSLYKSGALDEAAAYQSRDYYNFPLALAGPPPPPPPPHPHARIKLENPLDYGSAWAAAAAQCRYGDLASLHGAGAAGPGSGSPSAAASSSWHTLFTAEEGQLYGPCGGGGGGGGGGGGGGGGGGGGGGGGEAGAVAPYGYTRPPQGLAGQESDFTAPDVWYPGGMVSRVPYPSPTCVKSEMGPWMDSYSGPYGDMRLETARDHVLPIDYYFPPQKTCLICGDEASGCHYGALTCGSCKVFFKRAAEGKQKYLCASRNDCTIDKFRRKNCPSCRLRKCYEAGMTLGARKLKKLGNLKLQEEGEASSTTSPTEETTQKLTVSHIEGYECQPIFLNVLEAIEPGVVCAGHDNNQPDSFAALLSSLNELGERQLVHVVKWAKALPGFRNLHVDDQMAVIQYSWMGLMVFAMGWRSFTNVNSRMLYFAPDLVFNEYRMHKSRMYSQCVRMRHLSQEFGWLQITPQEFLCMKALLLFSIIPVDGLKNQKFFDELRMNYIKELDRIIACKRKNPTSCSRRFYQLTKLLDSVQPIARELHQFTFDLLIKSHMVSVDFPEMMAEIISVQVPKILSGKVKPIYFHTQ

Target: T1, interaction between AR and TR4 (Homo sapiens, UniProt P10275, DEL79-80/DUP473-473)
T1 construct: A full-length AR(pSG5AR) was co-transfected with GAL4-TR4E; expressed in transfected cells; host or cells: H1299
Experiment: Modified mammalian one-hybrid system pSG5AR / GAL4-TR4E
Format: cell-based
Conditions: H1299 cells; GAL4-TR4E + PG5-Luc

B1: PR: progesterone receptor (protein)
chain: MTELKAKGPRAPHVAGGPPSPEVGSPLLCRPAAGPFPGSQTSDTLPEVSAIPISLDGLLFPRPCQGQDPSDEKTQDQQSLSDVEGAYSRAEATRGAGGSSSSPPEKDSGLLDSVLDTLLAPSGPGQSQPSPPACEVTSSWCLFGPELPEDPPAAPATQRVLSPLMSRSGCKVGDSSGTAAAHKVLPRGLSPARQLLLPASESPHWSGAPVKPSPQAAAVEVEEEDGSESEESAGPLLKGKPRALGGAAAGGGAAAVPPGAAAGGVALVPKEDSRFSAPRVALVEQDAPMAPGRSPLATTVMDFIHVPILPLNHALLAARTRQLLEDESYDGGAGAASAFAPPRSSPCASSTPVAVGDFPDCAYPPDAEPKDDAYPLYSDFQPPALKIKEEEEGAEASARSPRSYLVAGANPAAFPDFPLGPPPPLPPRATPSRPGEAAVTAAPASASVSSASSSGSTLECILYKAEGAPPQQGPFAPPPCKAPGASGCLLPRDGLPSTSASAAAAGAAPALYPALGLNGLPQLGYQAAVLKEGLPQVYPPYLNYLRPDSEASQSPQYSFESLPQKICLICGDEASGCHYGVLTCGSCKVFFKRAMEGQHNYLCAGRNDCIVDKIRRKNCPACRLRKCCQAGMVLGGRKFKKFNKVRVVRALDAVALPQPVGVPNESQALSQRFTFSPGQDIQLIPPLINLLMSIEPDVIYAGHDNTKPDTSSSLLTSLNQLGERQLLSVVKWSKSLPGFRNLHIDDQITLIQYSWMSLMVFGLGWRSYKHVSGQMLYFAPDLILNEQRMKESSFYSLCLTMWQIPQEFVKLQVSQEEFLCMKVLLLLNTIPLEGLRSQTQFEEMRSSYIRELIKAIGLRQKGVVSSSQRFYQLTKLLDNLHDLVKQLHLYCLNTFIQSRALSVEFPEMMSEVIAAQLPKILAGMVKPLLFHKK
Induction when AR was replaced with other activated steroid receptors: no induction
